Target: cPXR (Cyprinus carpio, UniProt A0A1P8P0E9)

By UniProt entry, the sequences of proteins in these tests, tags left out.
UniProt A0A1P8P0E9, entry or part of it: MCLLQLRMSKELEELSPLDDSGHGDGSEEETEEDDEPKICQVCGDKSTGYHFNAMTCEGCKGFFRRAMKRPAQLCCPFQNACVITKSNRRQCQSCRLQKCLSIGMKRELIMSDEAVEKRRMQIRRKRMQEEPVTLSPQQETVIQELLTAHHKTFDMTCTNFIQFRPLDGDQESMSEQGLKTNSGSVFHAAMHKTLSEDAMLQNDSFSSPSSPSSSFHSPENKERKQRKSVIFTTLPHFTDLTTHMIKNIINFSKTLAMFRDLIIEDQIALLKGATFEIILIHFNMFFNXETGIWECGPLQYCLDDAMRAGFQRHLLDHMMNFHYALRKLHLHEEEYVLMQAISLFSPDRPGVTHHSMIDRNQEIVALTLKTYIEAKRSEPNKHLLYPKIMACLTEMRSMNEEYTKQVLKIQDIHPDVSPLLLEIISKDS

CO[C@H]1/C=C/O[C@@]2(C)Oc3c(C)c(O)c4c(O)c(c(/C=N/N5CCN(C)CC5)c(O)c4c3C2=O)NC(=O)/C(C)=C\C=C\[C@H](C)[C@H](O)[C@@H](C)[C@@H](O)[C@@H](C)[C@H](OC(C)=O)[C@@H]1C [RIF, rifampicin]
activation of cPXR compared with control, single concentration: not supported statistically
